Data on one molecule can be found in patent publication US8273715B2, “Methods of treating fragile X syndrome” (Seaside Therapeutics, Inc., priority 2006, dated 2012).

For the assay, the system named is person one with autism spectrum disorder. Put plainly: Example 2: baclofen in person one with autism spectrum disorder. In kind it is in vivo, human. An excerpt:
. […] Dramatic improvements in mood and affect such as “looks comfortable, calm and happy” were also noted. Increased alertness, interest and motivation to work on cognitive/educational activities with school instructors were also noted. […]. Daily scores were averaged over the five weeks after initiating baclofen therapy and compared to the average scores for the five weeks immediately preceding initiation of baclofen therapy. […].

On to `NCC(CC(=O)O)c1ccc(Cl)cc1` (racemic) [baclofen, β-(Aminomethyl)-4-chlorobenzenepropanoic acid], for which, for the setting “5 mg bid, average of five weeks after initiation, before 10+2”, the “episodes of eye diversion” value is on record as 5+2 episodes a day. Where the note is “about 5 mg bid, over the next several days and weeks”, the “cognitive and behavioral domains” value is on record as “improvements were noted”.
